This test deals with SARS-CoV-2 nsp5 (nsp4-5-6 WT) (Severe acute respiratory syndrome coronavirus 2, UniProt P0DTD1).

As for `Cc1sc2c(c1C)C(c1ccc(Cl)cc1)=N[C@@H](CC(=O)NCCCCCCCCNC(=O)COc1cccc3c1C(=O)N(C1CCC(=O)NC1=O)C3=O)c1nnc(C)n1-2` (some centres unmarked) [Compound #2, dBET6], the “Primary screen nsp5-WT RLU (%)” value was 17.3% and the “Secondary screen nsp5-WT RLU (%)” value came to 15.2 ± 1.0%.

Source of the values: article PMC8906008 (Antiviral Research, 2022).
